# Antibody variant affinities, Ab-95 light chain, assay 2

Target peptide (SARS-CoV-2 spike, HR2 region): PDVDLGDISGINAS

Ab-95 is the parent antibody, in scFv form: VH, then three GGGGS repeats, then VL. The heavy chain is unchanged in all variants.
VH: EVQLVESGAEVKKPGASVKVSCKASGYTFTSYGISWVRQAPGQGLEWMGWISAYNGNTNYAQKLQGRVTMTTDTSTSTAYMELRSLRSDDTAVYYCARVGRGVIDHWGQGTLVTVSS
VL: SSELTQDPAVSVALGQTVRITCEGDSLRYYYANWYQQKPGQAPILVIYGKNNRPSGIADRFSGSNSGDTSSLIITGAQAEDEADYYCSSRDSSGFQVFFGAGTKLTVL

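The parent was found by panning a naive human phage display library on the peptide. The library (AAYL52) carries one to three amino acid substitutions per variant, with no insertions or deletions. Affinity was read by AlphaSeq, a pooled yeast mating assay with surface-displayed partners. After mating in shaken culture at 30 °C for 16 h, diploids were selected and their barcode pairs sequenced. Scores were corrected for input abundance and mapped to Kd with protein pairs of known affinity run in the same pool. Mating was done three times.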

The whole VL of each variant is written out.
All variants listed here change S92 of the VL, counted from its first residue.
Values are apparent Kd, the geometric mean of the replicates that gave a signal; lower means stronger binding.
"nd" means that the variant was in the library but no mating with the target was seen in any replicate; the authors take this as a sign of poor binding, and no number exists.
Empty control strains, which show no peptide, gave a signal in 28% of pairings with library AAYL52; the median was 8.2 µM and 95% of these signals were weaker than 800 nM. No background was subtracted. The control count says in how many pairings with the empty strains this scFv gave a signal.

Variant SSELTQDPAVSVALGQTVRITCEGDSLRYYYANWYQQKPGQAPILVIYGKNNSPSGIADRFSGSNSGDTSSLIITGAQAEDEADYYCSIRDKSGFQVFFGAGTKLTVL gave 1.2 µM (3 of 3 replicates; controls 0 of 9).
Variant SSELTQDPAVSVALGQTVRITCEGDSLRYYYAMWYQQKPGQAPILVIYGKNFRPSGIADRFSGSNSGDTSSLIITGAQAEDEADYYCSSRDESGFQVFFGAGTKLTVL gave nd (0 of 3 replicates; controls 2 of 9).
Variant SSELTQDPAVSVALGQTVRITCEGDSLRYYYANWYQQKPGQAPILVIYGKNTRPSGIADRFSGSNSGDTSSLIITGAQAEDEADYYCSSQDISGFQVFFGAGTKLTVL gave 11 µM (2 of 3 replicates; controls 2 of 9).
Variant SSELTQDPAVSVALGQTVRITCEGDSLRYYYANWYQQKPGQAPILVIYGKNNRPSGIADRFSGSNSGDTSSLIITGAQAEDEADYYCSTRDESGFQVAFGAGTKLTVL gave 4.2 µM (2 of 3 replicates; controls 6 of 9).
Variant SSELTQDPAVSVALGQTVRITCEGDSFRYYYANWYQQKPGQAPILVIYGKNNRPSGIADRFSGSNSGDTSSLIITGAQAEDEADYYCSSRDPSGFQVFFGAGTKLTVL gave 1.0 µM (3 of 3 replicates; controls 5 of 9).
Variant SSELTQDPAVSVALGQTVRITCEGDLLRYYYANWYQQKPGQAPILVIYGKNNRPSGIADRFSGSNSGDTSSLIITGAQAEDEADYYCSSRDISGFQGFFGAGTKLTVL gave 13 µM (2 of 3 replicates; controls 1 of 9).
Variant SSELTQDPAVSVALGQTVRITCDGDSLRYYYANWYQQKPGQAPILVIYGKNNRPSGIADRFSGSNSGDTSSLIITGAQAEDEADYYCSSRDWSGFQVFFGAGTKLTVL gave 9.7 µM (1 of 3 replicates; controls 0 of 9).
Variant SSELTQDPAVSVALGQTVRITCEGDSLRYMYAFWYQQKPGQAPILVIYGKNNRPSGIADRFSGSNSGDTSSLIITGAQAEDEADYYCSSRDESGFQVFFGAGTKLTVL gave 2.4 µM (1 of 3 replicates; controls 2 of 9).
Variant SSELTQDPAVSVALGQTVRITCEHDSLRYYYANWYQQKPGQAPILVIYGKNNRPSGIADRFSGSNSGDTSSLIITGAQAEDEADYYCSDRDNSGFQVFFGAGTKLTVL gave 450 nM (3 of 3 replicates; controls 1 of 9).
Variant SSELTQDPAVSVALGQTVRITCEGDSLRWYYANWYQQKPGQAPILVIYGKNNRPSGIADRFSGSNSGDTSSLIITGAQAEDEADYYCSSRDFSGFQVFFGAGTKLTVL gave 320 nM (3 of 3 replicates; controls 3 of 9).
Variant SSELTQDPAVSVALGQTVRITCEGDSLNYWYANWYQQKPGQAPILVIYGKNNRPSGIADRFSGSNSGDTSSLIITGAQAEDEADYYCSSRDISGFQVFFGAGTKLTVL gave 94 nM (3 of 3 replicates; controls 3 of 9).
Variant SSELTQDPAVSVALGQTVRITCEGASLRYYYANWYQQKPGQAPILVIYFKNNRPSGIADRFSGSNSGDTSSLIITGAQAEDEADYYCSSRDYSGFQVFFGAGTKLTVL gave nd (0 of 3 replicates; controls 3 of 9).
Variant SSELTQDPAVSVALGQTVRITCEGDSLRYYYANWYQQKPGQAPILVIYGKNNRPSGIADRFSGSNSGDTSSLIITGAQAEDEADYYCSSRDFSGFQVFFGAGTKLTVL gave 170 nM (3 of 3 replicates; controls 2 of 9).
Variant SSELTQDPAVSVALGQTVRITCQGDSLRYYYANWYQQKPGQAPILVIYGKNNRPSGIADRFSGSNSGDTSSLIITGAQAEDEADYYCSSRDLSGSQVFFGAGTKLTVL gave 260 nM (3 of 3 replicates; controls 4 of 9).
Variant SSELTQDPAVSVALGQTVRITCEGDSLRNYYANWYQQKPGQAPILVIYGKNNCPSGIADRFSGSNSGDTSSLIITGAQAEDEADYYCSSRDYSGFQVFFGAGTKLTVL gave 16 µM (2 of 3 replicates; controls 6 of 9).
Variant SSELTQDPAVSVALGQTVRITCEGDSLRYYYANWYQQKPGQAPILVIYGKNNRPPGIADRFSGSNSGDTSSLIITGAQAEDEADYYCSSRDPSGFAVFFGAGTKLTVL gave 1.1 µM (3 of 3 replicates; controls 4 of 9).
Variant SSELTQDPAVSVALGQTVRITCEGDSLRYYYANWYQQKPGQAPILVIYGKNNRPIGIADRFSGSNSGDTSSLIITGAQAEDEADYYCSKRDPSGFQVFFGAGTKLTVL gave 890 nM (3 of 3 replicates; controls 2 of 9).

Top 2 of the variants detected in all replicates, tightest first:

| VL | apparent Kd | replicates with signal | control signals |
|---|---|---|---|
| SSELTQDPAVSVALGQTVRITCEGDSLNYWYANWYQQKPGQAPILVIYGKNNRPSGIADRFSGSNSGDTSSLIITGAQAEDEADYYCSSRDISGFQVFFGAGTKLTVL | 94 nM | 3 of 3 | 3 of 9 |
| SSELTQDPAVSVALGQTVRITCEGDSLRYYYANWYQQKPGQAPILVIYGKNNRPSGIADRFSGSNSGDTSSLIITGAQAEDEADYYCSSRDFSGFQVFFGAGTKLTVL | 170 nM | 3 of 3 | 2 of 9 |

Parent in this assay: reference entry 200 nM, copy in this library 180 nM.

Values reported by Engelhart et al. 2022, doi:10.1038/s41597-022-01779-4 (FLAb copy).